The text below walks through data of article PMC8254792 (Molecular cell, 2021).

The assay has as its target T1, EMC2-8 complex (recombinant EMC2 with recombinant EMC8) (human, UniProt Q15006 1-297; O43402 1-210).
T1 sequence 1: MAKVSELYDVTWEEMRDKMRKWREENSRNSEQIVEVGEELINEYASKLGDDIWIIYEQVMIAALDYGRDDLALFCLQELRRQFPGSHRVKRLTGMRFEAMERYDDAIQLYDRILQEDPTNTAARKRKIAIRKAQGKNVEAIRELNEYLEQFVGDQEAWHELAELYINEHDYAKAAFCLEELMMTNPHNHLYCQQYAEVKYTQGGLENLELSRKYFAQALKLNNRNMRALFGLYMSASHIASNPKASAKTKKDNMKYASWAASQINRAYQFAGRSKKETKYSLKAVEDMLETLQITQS
T1 sequence 2: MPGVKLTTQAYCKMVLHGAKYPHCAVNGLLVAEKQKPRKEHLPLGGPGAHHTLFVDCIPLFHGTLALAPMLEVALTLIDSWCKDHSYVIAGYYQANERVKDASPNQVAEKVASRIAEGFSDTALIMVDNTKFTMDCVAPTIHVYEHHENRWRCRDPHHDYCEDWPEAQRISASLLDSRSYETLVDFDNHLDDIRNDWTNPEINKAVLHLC
As to the kind of experiment: co-IP.

B1: EMC5 C-terminus (5-CT; residues 66-131)-3xFLAG (domain or fragment, human, UniProt Q8N4V1 66-131, looked up)
chain: EFKDMDATSELKNKTFDTLRNHPSFYVFNHRGRVLFRPSDTANSSNQDALSSNTSLKLRKLESLRR
Regarding B1, the binding result is recorded as “binds”.
